The text below walks through data of ChEMBL document CHEMBL3232785, “Basic quinolinonyl diketo acid derivatives as inhibitors of HIV integrase and their activity against RNase H function of reverse transcriptase” (J Med Chem, 2014).

SMILES strings stand for the structures.

For assay [1], the target named is Human immunodeficiency virus type 1 reverse transcriptase (Human immunodeficiency virus 1, UniProt Q72547). Description: Inhibition of HIV1 RNase H function of recombinant reverse transcriptase using an 18-nt 3'-fluorescein-labeled RNA annealed to complementary 18-nt 5'-dabsyl-labeled DNA as substrate after 10 mins by fluorescence spectrometer analysis.
Assay [2] deals with T1, Human immunodeficiency virus type 1 integrase (Human immunodeficiency virus 1, UniProt Q7ZJM1). Description: Inhibition of HIV1 integrase strand transfer activity by gel-based assay.
Assay [3] concerns the target T1, Human immunodeficiency virus type 1 integrase. Description: Inhibition of HIV1 integrase 3'-processing activity by gel-based assays.

For the compound `CCOC(=O)/C(O)=C/C(=O)c1cn(Cc2ccc(F)cc2)c2cc(N3CCN(C)CC3)ccc2c1=O`, the IC50 was found to be 18.5 µM in assay [1], 0.6 µM in assay [2] and 56 µM in assay [3].
In the same order, the values of `O=C(O)/C(O)=C/C(=O)c1cn(Cc2ccc(F)cc2)c2cc(N3CCNCC3)ccc2c1=O` are 28.7 µM, 2 µM and 65 µM.
Take `CC(=O)N1CCN(c2ccc3c(=O)c(C(=O)/C=C(\O)C(=O)O)cn(Cc4ccc(F)cc4)c3c2)CC1`: the results for the IC50 in assay [1], in assay [2] and in assay [3] were 3.3 µM, 0.08 µM and 8.5 µM, respectively.
In the same order, the values of `CN(C)c1ccc2c(=O)c(C(=O)/C=C(\O)C(=O)O)cn(Cc3ccc(F)cc3)c2c1` are 6.6 µM, 0.15 µM and 5.1 µM.
